Source: PubChem BioAssay
MITF act: activators of MITF-driven TRPM1 promoter reporter, primary screen, cell-based, SK-MEL-5, luciferase, single point | AID 588334, 2011 | activation, % at 12.5 µM | actives 0.75% (n = 300,000) | SK-MEL-5 TRPM1-promoter luciferase, 24 h; % of positive control, neutral wells = 0;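 active = mean activation of at least 80% with every replicate also reaching 80%; inconclusive = mean reaches 80% but some replicate falls short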;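 note: 0% = neutral control wells and 100% = parthenolide positive control wells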
esBAF inh: Bmi1 luciferase reporter increase in mESCs, primary screen, esBAF inhibitor project, mouse ES cells, Bmi1 luciferase knock-in, single point; 24 h; 100% = twice the neutral-well signal; reporter increase, % at 12.5 µM; actives 2% (n = 350,000); AID 602393, 2012; in the data active = activation above about 40%; inconclusive = no clear call, values can overlap the other calls;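 note: 0% = median of the plate's neutral control wells and 100% = double that signal; a rise in the Bmi1 reporter signal indicates esBAF inhibition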
miR-122 sensor: miR-122 Renilla sensor signal increase in Huh7, primary screen, miR-122 inhibitor project, cell-based, single point, plate reader; Huh7 miR-122 Renilla luciferase sensor, 48 h; neutral wells = 0, positive control = 100; activation (reporter increase), % at 12.5 µM; actives 0.3% (n = 340,000); AID 602342, 2012;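 active = mean replicate activation score at least 90 and every replicate individually at or above 90; inconclusive = only one of the two criteria met; inactive = neither criterion met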;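 note: higher luciferase means less miR-122 activity so hits act as miR-122 inhibitors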
Wnt bcat act: Wnt/beta-catenin pathway activators, primary screen, cell-based, plate reader, single point | Wnt/beta-catenin reporter cell assay, activator | actives 1.2% (n = 300,000) | activation, % at 9.35 µM; in the data active = activation above about 30%, passing the limit was not always enough; inconclusive = no clear call, values can overlap the other calls;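 note: 0% = neutral control wells and 100% = positive control wells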
Yeast UUG start: modulators of start codon recognition fidelity in yeast; AID 602363; activity score, % at 18.7 µM; S. cerevisiae UUG-firefly luciferase reporter, luminescence/redox ratio; 0.13% of 350,000 active;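 active = replicate mean at a twofold rise or more, about +100% in these data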;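 note: firefly luciferase made from a UUG start codon reports start codon fidelity; reporter light over untreated wells divided by growth signal over untreated wells; some hits fall short of that in this replicate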
PglD inh: C. jejuni PglD acetyltransferase inhibitors, primary screen, biochemical, DTNB colorimetric, single point | AID 602405, 2012 | purified PglD enzyme, DTNB colorimetric CoA detection | UDP-N-acetylbacillosamine N-acetyltransferase PglD (Campylobacter jejuni) | inhibition, % at 12.5 µM | actives 0.098% (n = 360,000); in the data active = inhibition above about 16%, passing the limit was not always enough; inconclusive = no clear call, values can overlap the other calls
* = called active by the depositor; ? = inconclusive; · = no result; [ ] = another dose, or the depositor's remark. Most compounds without a hit are left out; they make up all but 2.8% or so of the library.

Each structure is followed by: MITF act | esBAF inh | miR-122 sensor | Wnt bcat act | Yeast UUG start | PglD inh
1	CCOC(=O)CSc1nc2sc3c(c2c(=O)n1CC)CC(C)(C)OC3
 : 7 | -3 | · | 0 | -6 | -1
2	CC1(C)Cc2c(sc3nc(-c4ccccc4)n(N)c(=O)c23)CO1
 : 14 | 43* | -4 | · | -6 | -5
3	CCC1(C)Cc2c(sc3nc(SC)n(Cc4ccccc4)c(=O)c23)CO1 (stereo not drawn)
 : 55 | 59* | · | · | -5 | -3
4	O=C(NCC[C@@H]1CC[C@H](NC(=O)C2CCCC2)[C@H](CO)O1)c1cc(Cl)cc(Cl)c1
 : · | 7 | 5[16.7 µM] | · | -2 | 2
5	C[C@@H]1CN([C@H](C)CO)C(=O)c2c(c3ccccc3n2C)-c2ccccc2CO[C@@H]1CN(C)C(=O)c1ccncc1
 : · | 4 | · | · | · | 0
6	Cc1noc(C)c1S(=O)(=O)N(C)C[C@@H]1OCCCC[C@@H](C)Oc2ccc(NC(=O)NC(C)C)cc2C(=O)N([C@H](C)CO)C[C@@H]1C
 : · | -3 | 0[16.7 µM] | · | -7 | -2
7	COCCCNC(=O)C1CCN(C(=O)c2oc3cc4sc(N(C)C)nc4cc3c2C)CC1
 : ? | 49* | -5 | 15 | -18 | -2
8	CCN(CC)CCCNC(=O)C1CCN(C(=O)c2oc3cc4sc(N(C)C)nc4cc3c2C)CC1
 : 44 | 7 | -1 | 7 | -21 | -27
9	O=C(C[C@H]1C[C@@H]2c3cc(NC(=O)Nc4ccccc4F)ccc3O[C@@H]2[C@@H](CO)O1)NCc1cc(F)ccc1F
 : · | 29 | -8[16.7 µM] | · | 12 | 0
10	CC(C)(C)NC(=O)/C=C/c1ccc(C(F)(F)F)cc1
 : 11 | · | · | 77* | · | ·

Single records (already shown). Order of screens: MITF act, esBAF inh, miR-122 sensor, Wnt bcat act, Yeast UUG start, PglD inh
C[C@@H]1CN([C@H](C)CO)C(=O)c2c(c3ccccc3n2C)-c2ccccc2CO[C@@H]1CN(C)C(=O)c1ccncc1 reads ·, 4, ·, ·, ·, 0
CCC1(C)Cc2c(sc3nc(SC)n(Cc4ccccc4)c(=O)c23)CO1 (stereo not drawn) reads 55, 59*, ·, ·, -5, -3
CC1(C)Cc2c(sc3nc(-c4ccccc4)n(N)c(=O)c23)CO1 reads 14, 43*, -4, ·, -6, -5
O=C(NCC[C@@H]1CC[C@H](NC(=O)C2CCCC2)[C@H](CO)O1)c1cc(Cl)cc(Cl)c1 reads ·, 7, 5[16.7 µM], ·, -2, 2

Later entries:
Each structure is followed by: MITF act | esBAF inh | miR-122 sensor | Wnt bcat act | Yeast UUG start | PglD inh
11	COc1ccc(/C(N)=C/C(=O)C(C)(C)C)cc1
 : 55 | 58* | -3 | · | · | ·
12	CC(C)(C)C(=O)/C=C(\N)c1ccncc1
 : -6 | -20 | -3 | -2 | -15 | -6
13	COc1ccc2nc(N3C(=O)CNC3=S)sc2c1
 : · | · | -9 | 54* | -1 | 0
14	Cc1ccc2nc(N3C(=O)CNC3=S)sc2c1
 : · | · | 8 | -2 | 11 | 1
15	COc1cccc(/C=C/C(=O)NNC(=O)c2ccncc2)c1OC
 : 16 | 4 | · | 3 | -8 | -1
16	COc1cccc(/C=C/C(=O)NNC(=O)c2ccccc2)c1OC
 : 16 | · | 0 | 34* | · | ·
17	O=C(NNC(=O)c1ccccc1OCc1ccccc1)c1ccccc1F
 : 55 | 60* | 3 | 11 | 7 | -5
18	Cc1noc(C)c1S(=O)(=O)N(C)C[C@H]1OCCCC[C@@H](C)Oc2ccc(NC(=O)NC3CCCCC3)cc2C(=O)N([C@@H](C)CO)C[C@@H]1C
 : · | 0 | 0[16.7 µM] | · | 13 | 0
19	C[C@H](CO)N1C[C@H](C)[C@@H](CN(C)CC2CCCCC2)Oc2c(NC(=O)Nc3ccc(C(F)(F)F)cc3)cccc2C1=O
 : · | 12 | 32[16.7 µM] | · | -2 | 0
20	CC(C)C(=O)Nc1nc(-c2ccccc2)ns1
 : 135* | 56* | -3 | -5 | -20 | 2
21	CCCc1nnc(NC(=S)Nc2ccccc2)s1
 : 61 | · | · | 23 | · | ·
22	CC(C)C(=O)Nc1nnc(NC(=S)Nc2ccccc2)s1
 : 37 | 76* | -3 | 8 | -33 | 3
23	CCC(=O)Nc1nc(-c2ccccc2)ns1
 : · | 43* | -1 | · | -19 | 1
24	CO[C@@H]1CN(C)C(=O)c2cc(NC(=O)C3CCCCC3)ccc2OC[C@@H](C)N(Cc2nccs2)C[C@@H]1C
 : · | 9 | · | · | · | -1
25	O=C(NN1C(=O)C2C3c4ccccc4C(c4ccccc43)C2C1=O)C1CC1 (stereo not drawn)
 : -5 | · | · | 51* | · | ·
26	O=C(NN1C(=O)C2C3c4ccccc4C(c4ccccc43)[C@@H]2C1=O)c1ccccc1 (stereo partly drawn)
 : -7 | · | · | 30* | · | ·
27	Cc1ccc(CNc2ccc([N+](=O)[O-])cc2C(N)=O)cc1
 : 106* | 54* | · | 20 | -12 | 0
28	N#C/C(C(=O)NCc1ccccc1)=C1/N=C(NC(=O)c2ccco2)c2ccccc21
 : 38 | 47* | 0 | -4 | -4 | -2
29	CO[C@@H]1CN(C)C(=O)c2cc(NC(=O)C3CC3)ccc2OC[C@@H](C)N(C)C[C@H]1C
 : · | -1 | · | · | -4 | 4
30	C[C@H]1CN([C@@H](C)CO)C(=O)c2cc(NS(C)(=O)=O)ccc2O[C@H]1CN(C)C(=O)Nc1cccc2ccccc12
 : · | 4 | 2[16.7 µM] | · | · | 1
31	Cn1c(-c2ccc3ccccc3n2)nc2cnccc21
 : · | 66* | 1 | -2 | 24 | 3
32	C[C@H](CO)N1C[C@H](C)[C@H](CN(C)C(=O)c2ccccn2)Oc2cc(C#Cc3ccccc3)ccc2S1(=O)=O
 : · | 8 | 5[16.7 µM] | · | -2 | -1
33	COc1ccc(CCNc2ncccc2C#N)cc1OC
 : 75 | 54* | 1 | 19 | -21 | 7
34	COc1ccc(-n2nnnc2SCC(=O)c2ccc(O)c(O)c2)cc1
 : -3 | -3 | 3 | · | 0 | 1
35	NC(=O)c1ccc(-n2nnnc2SCC(=O)c2ccc(O)c(O)c2)cc1
 : 0 | -1 | 129* | -1 | · | ·
36	C[C@H]1CN([C@@H](C)CO)C(=O)c2c(c3ccccc3n2C)-c2ccccc2CO[C@@H]1CN(C)S(C)(=O)=O
 : · | -5 | · | · | 11 | -2
37	Cc1ccccc1N(C(=O)Cc1cccs1)C(C(=O)NCC1CCCO1)c1cccnc1 (stereo not drawn)
 : -5 | -1 | 10 | · | -11 | 1
38	COc1cccc(N(C(=O)Cc2cccs2)C(C(=O)NC2CCCC2)c2ccncc2)c1 (stereo not drawn)
 : 13 | 52* | -1 | 7 | -21 | 4
39	O=C(NCC1CCCO1)C(c1cccnc1)N(C(=O)Cc1cccs1)c1ccccc1 (stereo not drawn)
 : 49 | 69* | 3 | 18 | -15 | 4
40	O=C(NCC1CCCO1)C(c1cccs1)N(Cc1cccs1)C(=O)Cn1nnc(-c2cccs2)n1 (stereo not drawn)
 : -6 | · | 116* | -7 | -3 | -5
41	O=C(NCC1CCCO1)C(c1cccs1)N(C(=O)Cn1nnc(-c2cccs2)n1)C1CCCC1 (stereo not drawn)
 : -4 | -7 | 53 | -2 | 2 | 1
42	COc1ccc(N(C(=O)Cc2cccs2)C(C(=O)NC2CCCC2)c2ccncc2)cc1 (stereo not drawn)
 : 23 | 16 | · | 4 | -5 | 5
43	C[C@@H]1CN([C@@H](C)CO)C(=O)c2cccc(NS(=O)(=O)c3ccc(Cl)cc3)c2O[C@H]1CN(C)S(=O)(=O)c1cn(C)cn1
 : · | -4 | 2[16.7 µM] | · | -4 | ·
